Values of other authors, collected in patent publication US5847092A (Zambon Group S.p.A., priority 1994, dated 1998).

Details: literature; cited from earlier work

## CC[C@H]1OC(=O)[C@H](C)[C@@H](O[C@H]2C[C@@](C)(OC)[C@@H](O)[C@H](C)O2)[C@H](C)[C@@H](O[C@@H]2O[C@H](C)C[C@H](N(C)C)[C@H]2O)[C@](C)(O)C[C@@H](C)C(=O)[C@H](C)[C@@H](O)[C@]1(C)O [Erythromycin A]
  pharmacokinetic properties / bioavailability (in words): poor bioavailability
